In US8486974B2 (priority 2007, dated 2013):

Key:
[1] = Hydrolysis in the presence of human intestinal microsomes (HIM), with or without esterase inhibitors; type: in vitro ADME
Protocol: (§1) Pooled plasma/serum solutions (4 ml) were prepared to the correct strength by dilution of plasma with phosphate buffer pH 7.4 (e.g. for a 10% solution 0.4 ml of plasma/serum was added to 3.6 ml of phosphate buffer pH 7.4). Following equilibration of the plasma/serum sample at 37±0.5° C. 100 μl of a stock solution of test compound in acetonitrile (1×10^−4 M) was added and 250 μl aliquots were removed at specified time intervals. Samples were transferred to 1.5 ml Eppendorf tubes containing 500 μl of a 2% w/v solution of nSO4.7H2O (water:acetonitrile, 1:1). Tubes were vortexed for 2 minutes, then centrifuged at 10,000 rpm for 3 minutes at room temperature. Supernatant was aspirated off and analysed by HPLC. The concentration of test compound and metabolites were determined with reference to calibration curves run on that day in the same concentration range and under the same experimental conditions. In order to mimic conditions during the first passage of the drugs after intestinal absorption selected compounds were incubated in phosphate buffer at 37° C. in the presence of microsomes from human liver (HLM) and intestinal epithelium (HIM). The metabolic fate of the esters under these conditions was also determined by RPHPLC by measuring the concentration of drug and metabolites in the medium as a function of time. The identity of participating enzymes was confirmed by using purified enzyme in the case of plasma (BuChE) and by repeating the hydrolysis experiments in the presence of esterase specific inhibitors—isoOMPA for BuChE and BNPP for carboxylesterase. The BuChE activity of plasma and microsomal samples was determined using the Ellman assay (Ellman et al., 1964).
(§2) Human blood samples were collected by venipuncture into Li-Heparin Sarstedt Monovette tubes (9 ml). Plasma samples were obtained by centrifugation of blood at 10,000 rpm for five minutes and were frozen in aliquots until required for testing. Pooled human liver microsomes (HLM) were diluted to 5 ml with phosphate buffer pH 7.4 (0.1M) giving a stock solution of 2 mg/ml. Aliquots were frozen until required for testing. Pooled human intestinal microsomes (HIM) were diluted to 5 ml with phosphate buffer pH 7.4 (0.1M) giving a stock solution of 80 μg/ml. Aliquots were frozen until required for testing.
(§3) This raised the question as to whether this was due to the presence of BChE or to some other enzyme(s) because whereas human blood contains only butyrylcholinesterase the liver and intestinal epithelium also contain carboxylesterases (CE)—mainly CE-1 in the liver and CE-2 in the intestine. The microsomal preparations was therefore pre-incubated with iso-OMPA an established BChE inhibitor prior to addition of the pro-drug so as to allow sufficient time to inhibit any BChE that might have been present in the microsomal preparations. […] The Ellman assay was performed on both microsomal preparations so as to determine what levels of BChE are present, if any.
(§4) BNPP a know carboxylesterase inhibitor was incubated with HIM and HLM for 10 mins prior to addition of the drug so as to knock out carboxylesterase activity. […] It can be concluded that ISAS is a substrate for CE-1 and CE-2 as well as BuChE. These enzymes belong to the same family but have marked difference in substrate specificity. For example the CE enzymes are inefficient in the hydrolysis of positively charged substrates such as those favoured by BuChE, including choline esters. These enzymes are not normally grouped together.

[2] = Hydrolysis in the presence of human liver microsomes (HLM), with or without esterase inhibitors; type: in vitro ADME
Protocol: as §1, §2, §3, §4

[3] = Hydrolysis and aspirin release in buffered human plasma solution (HPLC)
[4] = HLM (0.2 mg/ml), conc drug 0.13 mM
[5] = HLM/BNPP (10.6 μM), conc drug 0.1 mM
[6] = HLM/iso-OMPA (14.4 μM), conc drug 0.1 mM
[7] = HIM (80 μg/ml), conc drug 0.1 mM
[8] = HIM/BNPP (11.6 uM), conc drug 0.11 mM
[9] = HIM/isoOMPA (14.14 uM), conc drug 0.11 mM

Isosorbide-2-aspirinate-5-(2-nitrooxy-methyl)benzoate [Compound 31]
aspirin production ([1]; HIM (80 μg/ml)): 21.7 µM
aspirin produced ([1]; in HIM, drug about 1×10^−4 M): 21.7 µM

Isosorbide-2-aspirinate-5-(3-nitrooxy-methyl)benzoate [Compound 32]
amounts of aspirin produced ([2]; HLM (0.2 mg/ml)): 5
Aspirin [2, 4]: 5 µM
Drug disappearace [2, 4]: 10 min
Salicylic acid [2, 4]: 6 µM
aspirin produced ([2]; HLM with iso-OMPA (14.4 μM), drug 1×10^−4 M): 1.4 µM
amounts of aspirin produced ([2]; HLM/BNPP (10.6 μM)): 0.3
Aspirin [2, 5]: 0.3 µM
Drug disappearace: drug left [2, 5]: 13 μM left
Salicylic acid [2, 5]: 0.9 µM
amounts of aspirin produced ([2]; HLM/iso-OMPA (14.4 μM)): 1.4
Aspirin [2, 6]: 1.4 µM
Drug disappearace [2, 6]: 20 min
Salicylic acid [2, 6]: 4.5 µM
amounts of aspirin produced ([3]; 50% HP): 21
Drug disappearace ([3]; 50% HP, conc drug 0.25 mM): 10 min
Aspirin ([3]; 80% HP, conc drug 0.1 mM): 21 µM
Drug disappearace ([3]; 80% HP, conc drug 0.1 mM): 10 min
aspirin produced ([3]; 80% human plasma, drug 1×10^−4M): 21 µM
amounts of aspirin produced ([1]; HIM (80 μg/ml)): 20
aspirin production ([1]; HIM (80 μg/ml)): 20 µM
Aspirin [1, 7]: 20 µM
Drug disappearace [1, 7]: 10 min
Salicylic acid [1, 7]: 4 µM
aspirin produced ([1]; HIM with iso-OMPA (14 μM), drug 1.1×10^−4 M): 12.7 µM
amounts of aspirin produced ([1]; HIM/BNPP (11.6 uM)): 0.22
Aspirin [1, 8]: 0.22 µM
Drug disappearace: drug left [1, 8]: 11 μM left
Salicylic acid [1, 8]: 1.3 µM
amounts of aspirin produced ([1]; HIM/isoOMPA (14.14 uM)): 12.7
Aspirin [1, 9]: 12.7 µM
Drug disappearace [1, 9]: 30 min
Salicylic acid [1, 9]: 7.2 µM
aspirin produced ([1]; in HIM, drug about 1×10^−4 M): 20 µM

Isosorbide-2-aspirinate-5-(4-nitrooxy-methyl) benzoate [Compound 33]
aspirin production ([1]; HIM (80 μg/ml)): 9.7 µM
aspirin produced ([1]; in HIM, drug about 1×10^−4 M): 9.97 µM
